For the series the following is noted: room temperature, closed container under nitrogen.

With “amorphous calcium salt of dihydroxy open acid simvastatin [amorphous simvastatin calcium]”, the stability during storage result was “stable”.

The values above are taken from patent publication US20050004215A1, “Amorphous simvastatin calcium and methods for the preparation thereof” (priority 2003, published 2005).
